In PubChem BioAssay AID588405 (Sanford-Burnham Center for Chemical Genomics, 2011):
This is a selection; strong and weak results do not stand in their true shares. Active and inactive are the calls of the source.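 The calls were made as follows: active = inhibition of at least 50% at 20 µM; inactive = the rest.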

Experiment: Peg3 promoter-driven luciferase inhibitors, primary screen, cell-based, HeLa, luciferase luminescence (AID 588405)
Details: HeLa PEG-Prom luciferase reporter, overnight, at 20 µM, stronger effect = higher value

SMILES | inhibition
CCC(=O)N(c1ccccc1)C1(COC)CCN(CCc2cccs2)CC1 | inactive: -7.61%
CCC(=O)N(c1ccccc1)C1(COC)CCN(CCn2nnn(CC)c2=O)CC1 | inactive: 3.77%
